{"source": "ChEMBL document CHEMBL1629420", "about": "“Structure-cytotoxicity relationship in a series of N-phosphorus substituted E,E-3,5-bis(3-pyridinylmethylene)- and E,E-3,5-bis(4-pyridinylmethylene)piperid-4-ones” (Eur J Med Chem, 2010)", "key": {"A549": {"test_system": "A549", "test": "Cytotoxicity against human A549 cells after 72 hrs by MTT assay", "format": "functional, cell-based"}, "[1]": {"test": "Cytotoxicity against human KB3-1 cells after 72 hrs by MTT assay", "format": "functional, cell-based", "conditions": "kb 3-1"}, "[2]": {"test": "Cytotoxicity against human Caov3 cells after 72 hrs by MTT assay", "format": "functional, cell-based", "conditions": "caov-3"}, "[3]": {"test": "Cytotoxicity against human multi drug resistant subclone KB 8.5 cells after 72 hrs by MTT assay"}}}
{"smiles": "CP(=O)(Oc1ccccc1)N1C/C(=C\\c2ccncc2)C(=O)/C(=C/c2ccncc2)C1", "note": "(configuration not stated)", "values": [{"measurement": "IC50", "setting": "A549", "result": 8.3, "unit": "µM"}, {"measurement": "IC50", "setting": "[1]", "result": 7.1, "unit": "µM"}, {"measurement": "IC50", "setting": "[2]", "result": 7, "unit": "µM"}, {"measurement": "IC50", "setting": "[3]", "result": 7.1, "unit": "µM"}]}
{"smiles": "CP(=O)(Oc1ccccc1)N1C/C(=C\\c2cccnc2)C(=O)/C(=C/c2cccnc2)C1", "note": "(configuration not stated)", "values": [{"measurement": "IC50", "setting": "A549", "result": 7.5, "unit": "µM"}, {"measurement": "IC50", "setting": "[1]", "result": 7.8, "unit": "µM"}, {"measurement": "IC50", "setting": "[2]", "result": 9.3, "unit": "µM"}, {"measurement": "IC50", "setting": "[3]", "result": 7.6, "unit": "µM"}]}
{"smiles": "CCOP(C)(=O)N1C/C(=C\\c2cccnc2)C(=O)/C(=C/c2cccnc2)C1", "note": "(configuration not stated)", "values": [{"measurement": "IC50", "setting": "A549", "result": 11.3, "unit": "µM"}, {"measurement": "IC50", "setting": "[1]", "result": 20.3, "unit": "µM"}, {"measurement": "IC50", "setting": "[2]", "result": 10.8, "unit": "µM"}, {"measurement": "IC50", "setting": "[3]", "result": 45.8, "unit": "µM"}]}
